Literature values, collected in patent publication US12036548B2, “Organs-on-chips as a platform for epigenetics discovery” (EMULATE, INC., priority 2018, dated 2024).

Details: inhalation; Costa et al., 1982

**Q.** With radioiodine as the substance, how does the “fraction breathed in that is absorbed into the blood in the lungs” value read?
**A.** about 55%
